Test results taken from PubChem BioAssay (Tox21).
“And” between values parts separate entries of the source, which are not always exact repeats. Equal entries are not always repeated. The list shows a part of the results, in another mix than the full data. Records with an inconclusive call do not appear. The source made the active and inactive calls. Calls follow the shape of the dose curve; as a rule, active = well fitted cell-killing curve with a large enough effect in the repeat runs; inconclusive = weak or mixed curves, or effect the other way; inactive = flat fitted curve, though single readings scatter.

Assay: qHTS assay to identify small molecule agonists of the androgen receptor (AR) signaling pathway in the presence of an antagonist - cell viability counter screen (AID 1259379); also: nearly all actives have a fitted effect of over 25% in size
Details: MDA-kb2 viability, CellTiter-Fluor, 16 h; at 42.5 µM (top of the series)
Description: National Center for Advancing Translational Sciences [NCATS]
NIH Chemical Genomics Center [NCGC]
U.S. Environmental Protection Agency [EPA]
National Institutes of Environmental Health Sciences [NIEHS]
National Toxicology Program [NTP]
U.S. Food and Drug Administration [FDA]
Androgen receptor (AR) is an important member of nuclear receptor family. Its signaling plays a critical role in AR-dependent prostate cancer and other androgen related diseases. Considerable attention has been given in the past decades to develop methods to study and screen for the environmental chemicals that have the potential to interfere with metabolic homeostasis, reproduction, developmental and behavioral functions. Therefore AR binding assay for screening against androgen agonists and antagonists can be used to identify potential endocrine disruptors.
MDA-kb2 cells (from ATCC, deposited by Wilson et al.) are human breast carcinoma cells that were stably transfected with a luciferase reporter gene under control of the MMTV promoter that contains response elements for both androgen receptor (AR) and glucocorticoid receptor (GR). This particular screening for measuring luciferase reporter gene activity using MDA-kb2 cells against Tox21 10K library compounds is a confirmation study on agonist mode screening in the presence of AR-antagonist compound (Nilutamide) at 3.0uM final concentration. The cytotoxicity of the compounds was tested in parallel by measuring the cell viability using CellTiter-Fluor assay system (Promega, Madison, WI) in the same wells.
Tox21 Assay Protocol Summary:
MDA-kb2 cells (cells cultured without CO2) were dispensed at 3,000 cells/well in 4uL of culture medium into white wall/solid-bottom 1536-well plates (Corning Life Sciences, Corning, NY) using a Multidrop Combi (Thermo Fisher Scientific Inc., Waltham, MA) dispenser. The assay plates were incubated at 37C and 0% CO2 for 5hr. One uL of 3.0uM (final concentration) Nilutamide or assay buffer was added using two separate tips of Flying Reagent Dispenser (FRD, Aurora Discovery, San Diego, CA). Then 23nL of compounds dissolved in DMSO at 15 concentrations and positive controls were transferred to the assay plates using a Pintool station (Wako, San Diego, CA). The assay plates were incubated at 37C and 0% CO2 for 16 hr. After 15hr incubation at 37C, 1uL/well CellTiter-Fluor reagent (Promega Corporation) was added to each well of the assay plates using FRD. After 1hr incubation at 37C and 0% CO2, the fluorescence signal was measured using a ViewLux plate reader (PerkinElmer, Shelton, CT).
% is scaled to controls: 0 for no effect and ±100 for the full control effect.

**Q.** With `Cc1cccc([N+](=O)[O-])c1[N+](=O)[O-]` as the molecule, how does the activity change, negative = cytotoxicity read?
**A.** The activity change, negative = cytotoxicity was inactive: -6.21%.

**Q.** For `OCCSCCO`, which activity change, negative = cytotoxicity is on record?
**A.** The activity change, negative = cytotoxicity was inactive: 0.799%.

Same assay, conditions: MDA-kb2 viability, CellTiter-Fluor, 16 h; at 92.4 µM (top of the series)

**Q.** For `N#CBr`, which activity change, negative = cytotoxicity is on record?
**A.** Its activity change, negative = cytotoxicity is inactive: 2.17%.

**Q.** Which activity change, negative = cytotoxicity does the source give for `COc1ccc([N+](=O)[O-])cc1[N+](=O)[O-]` here?
**A.** The activity change, negative = cytotoxicity was inactive: -0.481%.

**Q.** With `CCOP(=O)(CC)OCC` as the molecule, how does the activity change, negative = cytotoxicity read?
**A.** The activity change, negative = cytotoxicity was inactive: 0.478%.

**Q.** For `[NH4+].[O-][Cl+3]([O-])([O-])[O-]`, which activity change, negative = cytotoxicity is on record?
**A.** Its activity change, negative = cytotoxicity is inactive: 0.259% and inactive: -0.439%.

**Q.** Which activity change, negative = cytotoxicity does the source give for `CC(C)N(CCO)C(C)C` here?
**A.** Its activity change, negative = cytotoxicity is inactive: 0.0662%.

**Q.** Which activity change, negative = cytotoxicity does the source give for `O=[N+]([O-])[O-].[NH4+]` here?
**A.** The activity change, negative = cytotoxicity was inactive: 2.74% and inactive: 0.872%.

**Q.** For `CC(C)OP(C)(=O)OC(C)C`, which activity change, negative = cytotoxicity is on record?
**A.** Its activity change, negative = cytotoxicity is inactive: 1.28%.

**Q.** For `CP(=O)(O)OCCC[Si](O)(O)O`, which activity change, negative = cytotoxicity is on record?
**A.** Its activity change, negative = cytotoxicity is inactive: 2.07%.

**Q.** For `OCCSCCO`, which activity change, negative = cytotoxicity is on record?
**A.** Its activity change, negative = cytotoxicity is inactive: 0.646%.

**Q.** For `Cc1ccc([N+](=O)[O-])cc1[N+](=O)[O-]`, which activity change, negative = cytotoxicity is on record?
**A.** Its activity change, negative = cytotoxicity is inactive: 0.309% and inactive: 5.55%.

**Q.** For `O=[N+]([O-])c1cccc([N+](=O)[O-])c1`, which activity change, negative = cytotoxicity is on record?
**A.** The activity change, negative = cytotoxicity was inactive: -0.933%.

**Q.** With `CN(C)CCCl` as the molecule, how does the activity change, negative = cytotoxicity read?
**A.** The activity change, negative = cytotoxicity was inactive: -1.58%.

**Q.** With `O=[N+]([O-])OCC(CO[N+](=O)[O-])(CO[N+](=O)[O-])CO[N+](=O)[O-]` as the molecule, how does the activity change, negative = cytotoxicity read?
**A.** Its activity change, negative = cytotoxicity is inactive: -1.7%.

**Q.** For `Cc1c([N+](=O)[O-])cccc1[N+](=O)[O-]`, which activity change, negative = cytotoxicity is on record?
**A.** Its activity change, negative = cytotoxicity is inactive: -0.14% and inactive: 0.628%.

**Q.** Which activity change, negative = cytotoxicity does the source give for `COP(C)(=O)OC` here?
**A.** The activity change, negative = cytotoxicity was inactive: 1.12% and inactive: 3.4%.

**Q.** For `N=C(N)N[N+](=O)[O-]`, which activity change, negative = cytotoxicity is on record?
**A.** The activity change, negative = cytotoxicity was inactive: -1.44%.

**Q.** For `CCN(CC)CCCl`, which activity change, negative = cytotoxicity is on record?
**A.** The activity change, negative = cytotoxicity was inactive: -0.314%.
